Reference: patent US11286299B2, “Peptides selective for Bcl-2 family proteins” (Massachusetts Institute of Technology, priority 2018, dated 2022)

Sequences of proteins named here, by UniProt entry; tags and fusion partners are left off. Residues count along the entry.
UniProt Q07820, 172-327: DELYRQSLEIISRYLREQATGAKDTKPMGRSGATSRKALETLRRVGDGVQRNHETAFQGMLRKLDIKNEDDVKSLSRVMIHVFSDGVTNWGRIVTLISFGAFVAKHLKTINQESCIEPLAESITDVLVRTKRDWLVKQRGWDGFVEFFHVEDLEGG

Legend:
[1] = tested on: Bfl-1, Mcl-1, Bcl-xL, Bcl-w, and Bcl-2
Mcl-1 = Mcl-1 (Homo sapiens, UniProt Q07820); assay: Yeast cell-surface display binding (FACS titration); design: Mcl-1 residues 172-327; made in house; host or cells: E. coli; details: dTERMen designs
Description: (§1) Protein constructs Anti-apoptotic protein constructs used in this work correspond to human Bcl-xL residues 1-209, Mcl-1 residues 172-327 and Bfl-1 residues 1-151, expressed in E. coli and purified as described by Dutta et al. (45).
(§2) Cells were filtered and washed 2× in chilled BSS before resuspending the labeled cells in BSS and using a BD FACSAria flow cytometer or a BD FACSCanto and FACSDiva software for cell sorting or analysis.
(§3) Crystals were flash frozen in liquid nitrogen.

Bfl-1 = target: T1, Bfl-1 (Homo sapiens, UniProt Q16548); assay: as above; design: Bfl-1 residues 1-151; made in house; host or cells: E. coli; details: dTERMen designs
T1 sequence (Q16548 1-151): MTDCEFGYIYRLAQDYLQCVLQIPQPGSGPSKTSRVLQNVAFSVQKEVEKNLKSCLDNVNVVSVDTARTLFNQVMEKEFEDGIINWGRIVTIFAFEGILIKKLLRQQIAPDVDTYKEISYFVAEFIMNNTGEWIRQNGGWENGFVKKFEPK
Description: as §1, §2, §3

Row | Sequence | selectivity among Bcl-2 family members [1] | binding to target Mcl-1 (Mcl-1) | binding to target Bfl-1 (Bfl-1) | also measured
1 | APKEKEVAETLRKIGEEINEALK [dM1] | selective | bound tightly to their targets |  | 
2 | APKEKEVARTLIKIGEEINEALK [dM5] | selective |  |  | 
3 | APYLEQVARTLLHIGMEINEALR [dM6] |  | did not bind to their targets with high affinity |  | binding to any Bcl-2 family member tested [1]: not binding to any of the Bcl-2 family members we tested
4 | DKTLEEIARELLKLALEIDKEI [dM7] |  | bound tightly to their targets |  | 
5 | SLLEKLAEYLRQMADEINKKYVK [dF4] |  |  | bound tightly to their targets | 
6 | SYIDKIADLIDKVVEEINSKLE [dF6] |  |  | did not bind to their targets with high affinity | 
7 | SYIDKIADLIRKVAEEINSKLE [dF2] | highly Bfl-1 selective |  |  | 
8 | SYVDKIADLMKKVAEKINSDLT [dF5] | highly Bfl-1 selective |  |  | 
9 | SYVDKIADVMREVAEKINSDLT [dF1] | highly Bfl-1 selective |  | bound tightly to their targets | 
